One assay concerns the target TYK2 (Homo sapiens, UniProt P29597). Description: JAK assay (KINASE-GLO luminescent kinase assay), TYK2. It counts as biochemical. The settings on record: read-out: JAK IC50 (nM) TYK2; 10 nM JAK enzyme, 800 nM Abl peptide, room temperature 75 min. (In general: Kinase-Glo measures the ATP left after a reaction by luminescence.)
Another assay concerns the target JAK3 (Homo sapiens, UniProt P52333). Nature of the assay: JAK assay (KINASE-GLO luminescent kinase assay), JAK3. Particulars: read-out: JAK IC50 (nM) JAK3; 10 nM JAK enzyme, 800 nM Abl peptide, room temperature 75 min.
Another assay concerns the target JAK1 (Homo sapiens, UniProt P23458). Nature of the assay: JAK assay (KINASE-GLO luminescent kinase assay), JAK1. The settings on record: read-out: JAK IC50 (nM) JAK1; 10 nM JAK enzyme, 800 nM Abl peptide, room temperature 75 min.
A further assay deals with JAK2 (Homo sapiens, UniProt O60674). Nature of the assay: JAK assay (KINASE-GLO luminescent kinase assay), JAK2. Particulars: read-out: JAK IC50 (nM) JAK2; 10 nM JAK enzyme, 800 nM Abl peptide, room temperature 75 min.

The chains behind the UniProt entries cited, without tags or fusion partners.
UniProt P29597, whole entry: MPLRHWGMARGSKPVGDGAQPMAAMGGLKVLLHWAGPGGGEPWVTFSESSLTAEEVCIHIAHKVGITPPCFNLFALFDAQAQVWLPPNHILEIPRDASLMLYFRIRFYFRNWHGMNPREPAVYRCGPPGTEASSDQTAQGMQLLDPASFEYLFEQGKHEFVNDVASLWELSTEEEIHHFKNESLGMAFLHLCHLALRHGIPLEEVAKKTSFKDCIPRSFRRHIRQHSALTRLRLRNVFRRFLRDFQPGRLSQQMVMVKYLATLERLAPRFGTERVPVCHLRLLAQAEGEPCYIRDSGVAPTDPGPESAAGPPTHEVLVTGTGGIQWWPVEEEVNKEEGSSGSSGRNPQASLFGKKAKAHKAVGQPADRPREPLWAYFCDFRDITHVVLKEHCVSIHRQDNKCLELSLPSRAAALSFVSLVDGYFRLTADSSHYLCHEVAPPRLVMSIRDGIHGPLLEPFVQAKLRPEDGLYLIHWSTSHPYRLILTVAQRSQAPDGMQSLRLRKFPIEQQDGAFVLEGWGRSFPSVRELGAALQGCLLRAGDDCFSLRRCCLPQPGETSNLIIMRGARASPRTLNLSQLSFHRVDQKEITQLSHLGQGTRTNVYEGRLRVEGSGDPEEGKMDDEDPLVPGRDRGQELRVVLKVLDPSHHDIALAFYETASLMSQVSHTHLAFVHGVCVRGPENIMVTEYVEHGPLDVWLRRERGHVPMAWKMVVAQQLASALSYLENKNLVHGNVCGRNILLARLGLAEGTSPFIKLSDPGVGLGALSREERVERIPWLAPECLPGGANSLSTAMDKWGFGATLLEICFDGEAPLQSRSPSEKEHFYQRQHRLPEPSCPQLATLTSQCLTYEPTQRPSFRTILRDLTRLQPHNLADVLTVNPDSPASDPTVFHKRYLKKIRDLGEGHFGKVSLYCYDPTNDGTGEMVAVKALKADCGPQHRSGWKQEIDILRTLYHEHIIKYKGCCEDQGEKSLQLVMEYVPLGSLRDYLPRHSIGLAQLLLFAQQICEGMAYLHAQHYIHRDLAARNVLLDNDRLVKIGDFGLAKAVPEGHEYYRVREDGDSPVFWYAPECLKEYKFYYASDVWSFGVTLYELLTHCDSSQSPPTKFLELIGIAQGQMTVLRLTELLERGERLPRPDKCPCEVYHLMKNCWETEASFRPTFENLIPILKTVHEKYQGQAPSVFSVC
UniProt P52333, whole entry: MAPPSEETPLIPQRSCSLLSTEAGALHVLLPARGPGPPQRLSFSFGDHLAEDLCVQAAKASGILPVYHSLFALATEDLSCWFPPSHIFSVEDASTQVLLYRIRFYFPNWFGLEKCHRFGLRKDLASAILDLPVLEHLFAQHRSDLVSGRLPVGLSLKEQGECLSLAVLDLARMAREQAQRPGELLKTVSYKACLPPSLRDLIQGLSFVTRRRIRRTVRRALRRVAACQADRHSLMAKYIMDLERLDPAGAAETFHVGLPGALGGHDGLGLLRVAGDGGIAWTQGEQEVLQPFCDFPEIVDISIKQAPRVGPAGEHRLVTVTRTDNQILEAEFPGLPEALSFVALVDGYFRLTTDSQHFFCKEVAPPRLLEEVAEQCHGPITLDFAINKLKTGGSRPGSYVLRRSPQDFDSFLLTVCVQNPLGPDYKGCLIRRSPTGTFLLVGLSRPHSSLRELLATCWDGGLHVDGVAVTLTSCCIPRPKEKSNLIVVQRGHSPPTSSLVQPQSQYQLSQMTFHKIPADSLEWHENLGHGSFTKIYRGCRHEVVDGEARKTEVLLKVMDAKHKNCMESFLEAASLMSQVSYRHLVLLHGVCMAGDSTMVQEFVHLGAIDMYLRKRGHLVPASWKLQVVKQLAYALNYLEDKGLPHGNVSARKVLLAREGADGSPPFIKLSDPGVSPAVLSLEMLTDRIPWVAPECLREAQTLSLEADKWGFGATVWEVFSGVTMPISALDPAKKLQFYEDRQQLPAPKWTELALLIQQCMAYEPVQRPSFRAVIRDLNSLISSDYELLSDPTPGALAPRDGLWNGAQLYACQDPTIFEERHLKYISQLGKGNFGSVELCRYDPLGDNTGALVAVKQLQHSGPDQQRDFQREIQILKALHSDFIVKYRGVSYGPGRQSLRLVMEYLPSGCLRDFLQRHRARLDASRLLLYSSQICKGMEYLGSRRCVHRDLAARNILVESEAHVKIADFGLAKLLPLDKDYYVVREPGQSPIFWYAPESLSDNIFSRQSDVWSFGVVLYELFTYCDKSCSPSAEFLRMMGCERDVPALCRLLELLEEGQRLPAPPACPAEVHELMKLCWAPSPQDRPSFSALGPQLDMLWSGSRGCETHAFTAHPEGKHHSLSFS
UniProt P23458, whole entry: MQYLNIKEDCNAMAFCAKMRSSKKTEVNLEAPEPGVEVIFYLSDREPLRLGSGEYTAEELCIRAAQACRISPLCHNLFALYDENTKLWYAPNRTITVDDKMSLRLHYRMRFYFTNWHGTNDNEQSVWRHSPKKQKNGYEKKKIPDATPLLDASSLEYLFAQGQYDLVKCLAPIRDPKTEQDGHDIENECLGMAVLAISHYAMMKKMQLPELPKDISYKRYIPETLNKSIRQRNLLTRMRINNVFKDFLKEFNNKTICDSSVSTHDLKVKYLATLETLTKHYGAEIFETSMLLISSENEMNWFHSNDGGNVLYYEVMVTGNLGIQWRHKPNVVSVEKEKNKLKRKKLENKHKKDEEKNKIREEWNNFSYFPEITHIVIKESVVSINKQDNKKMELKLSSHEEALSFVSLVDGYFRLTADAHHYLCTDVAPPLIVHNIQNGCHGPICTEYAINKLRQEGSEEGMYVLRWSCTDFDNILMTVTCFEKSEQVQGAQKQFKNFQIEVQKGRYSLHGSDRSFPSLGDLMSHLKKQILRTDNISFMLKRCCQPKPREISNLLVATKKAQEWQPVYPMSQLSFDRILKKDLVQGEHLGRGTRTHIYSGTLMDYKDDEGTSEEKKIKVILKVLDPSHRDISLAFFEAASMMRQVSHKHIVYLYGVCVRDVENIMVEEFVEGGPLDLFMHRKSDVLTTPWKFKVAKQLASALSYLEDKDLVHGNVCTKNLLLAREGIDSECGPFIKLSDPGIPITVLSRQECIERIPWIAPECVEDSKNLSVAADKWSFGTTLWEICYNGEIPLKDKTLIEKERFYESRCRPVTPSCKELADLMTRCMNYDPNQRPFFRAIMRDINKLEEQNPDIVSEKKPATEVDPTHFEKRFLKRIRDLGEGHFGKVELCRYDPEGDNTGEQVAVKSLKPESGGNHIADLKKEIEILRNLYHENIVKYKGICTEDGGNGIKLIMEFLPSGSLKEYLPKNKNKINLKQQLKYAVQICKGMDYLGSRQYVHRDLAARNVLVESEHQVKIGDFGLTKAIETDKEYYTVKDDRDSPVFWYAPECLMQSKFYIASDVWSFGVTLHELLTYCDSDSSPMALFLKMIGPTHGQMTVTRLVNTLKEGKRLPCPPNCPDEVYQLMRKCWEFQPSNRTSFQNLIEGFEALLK
UniProt O60674, whole entry: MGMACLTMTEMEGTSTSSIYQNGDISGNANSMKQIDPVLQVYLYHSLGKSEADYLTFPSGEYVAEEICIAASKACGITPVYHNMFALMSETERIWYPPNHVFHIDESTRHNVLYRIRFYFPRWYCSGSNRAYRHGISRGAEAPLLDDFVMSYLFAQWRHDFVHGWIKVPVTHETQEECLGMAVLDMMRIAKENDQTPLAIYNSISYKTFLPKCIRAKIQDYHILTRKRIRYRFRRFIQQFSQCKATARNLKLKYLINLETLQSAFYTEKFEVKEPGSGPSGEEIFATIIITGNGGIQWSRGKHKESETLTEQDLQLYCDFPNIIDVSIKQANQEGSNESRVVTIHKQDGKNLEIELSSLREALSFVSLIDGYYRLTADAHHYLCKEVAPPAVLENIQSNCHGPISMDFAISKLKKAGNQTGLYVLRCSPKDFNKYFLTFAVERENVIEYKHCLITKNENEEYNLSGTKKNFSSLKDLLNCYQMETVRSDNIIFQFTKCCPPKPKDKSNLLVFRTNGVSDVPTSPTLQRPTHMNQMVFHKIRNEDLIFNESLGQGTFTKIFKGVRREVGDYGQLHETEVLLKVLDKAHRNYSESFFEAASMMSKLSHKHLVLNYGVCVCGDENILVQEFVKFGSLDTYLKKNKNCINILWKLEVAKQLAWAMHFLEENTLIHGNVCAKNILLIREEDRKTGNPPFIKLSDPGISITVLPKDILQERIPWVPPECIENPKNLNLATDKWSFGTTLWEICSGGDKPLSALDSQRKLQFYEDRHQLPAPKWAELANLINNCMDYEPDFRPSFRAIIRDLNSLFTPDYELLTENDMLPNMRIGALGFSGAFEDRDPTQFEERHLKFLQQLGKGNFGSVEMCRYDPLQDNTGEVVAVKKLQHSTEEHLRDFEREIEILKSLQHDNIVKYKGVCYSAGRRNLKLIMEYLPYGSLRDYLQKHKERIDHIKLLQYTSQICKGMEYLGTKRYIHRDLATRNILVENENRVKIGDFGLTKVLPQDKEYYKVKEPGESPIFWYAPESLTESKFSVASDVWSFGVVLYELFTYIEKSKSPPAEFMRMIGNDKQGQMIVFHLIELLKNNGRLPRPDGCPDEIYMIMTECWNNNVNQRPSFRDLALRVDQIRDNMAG

Where only a bound is given, the exact number is not on record here.

Turning to `Cc1cnc(Nc2ccc3c(c2)CNC3=O)nc1-c1cnn(CC2(Cl)CC2)c1`, the 50% inhibitory concentration (IC50) at TYK2, at JAK3, on JAK1 and at JAK2 was below 10 nM throughout.

As to `CN1CCN(c2ccc(Nc3ncc(Cl)c(-c4cnn(CC5(CF)COC5)c4)n3)cn2)CC1`, the concentration for half-maximal inhibition (IC50) on TYK2 is below 100 nM; at JAK3, below 100 nM; on JAK1, below 100 nM; at JAK2, below 10 nM.

As for `Cc1cnc(NCc2cccc(Cl)c2)nc1-c1cnn(CCC#N)c1`, the concentration for half-maximal inhibition (IC50) was below 100000 nM on TYK2, at least 50000 nM on JAK3, below 100000 nM at JAK1 and below 100000 nM at JAK2.

As to `Cc1cnc(Nc2ccc(N3CCOCC3)cc2)nc1-c1cnn(CC2(CF)CC2)c1`, the IC50 on TYK2 was below 10 nM; at JAK3, below 10 nM; at JAK1, below 100 nM; on JAK2, below 10 nM.

For the compound `CN(C)Cc1ccnc(Nc2ncc(Cl)c(-c3cnn(CC4(CF)CC4)c3)n2)c1`, the IC50 was below 100000 nM at TYK2, below 1000 nM at JAK3, below 1000 nM on JAK1 and below 100 nM on JAK2.

Regarding `N#CC1(Cn2cc(-c3nc(Nc4cccc(C(N)=O)c4)ncc3Cl)cn2)CC1`, the 50% inhibitory concentration (IC50) was below 100 nM at TYK2, below 10 nM at JAK3, below 100 nM on JAK1 and below 10 nM at JAK2.

For `Cc1cnc(Nc2cccc(C3(O)COC3)c2)nc1-c1cnn(CC2(CF)CC2)c1`, the concentration for half-maximal inhibition (IC50) was below 1000 nM at TYK2, below 100 nM at JAK3, below 1000 nM on JAK1 and below 10 nM on JAK2.

`Cc1csc(Nc2ncc(Cl)c(-c3cnn(CC4(CF)COC4)c3)n2)n1`: the IC50 at TYK2 was below 1000 nM; at JAK3, below 1000 nM; at JAK1, below 1000 nM; on JAK2, below 100 nM.

By IC50 is commonly meant the midpoint of a concentration-inhibition curve.

The values above are taken from patent US20250236611A1, “PYRAZOLE COMPOUNDS AND USES THEREOF” (ALCON INC., priority 2021, published 2025).
